Data on two substances can be found in US20110038850A1, “G Protein-Coupled Receptor and Modulators Thereof For The Treatment of Gaba-Related Neurological Disorders Including Sleep-Related Disorders” (priority 2007, published 2011).

Sequences of proteins named here, by UniProt entry; tags and fusion partners are left off. A change or cut given only in a name is not applied to a line headed by its entry.
UniProt P32247: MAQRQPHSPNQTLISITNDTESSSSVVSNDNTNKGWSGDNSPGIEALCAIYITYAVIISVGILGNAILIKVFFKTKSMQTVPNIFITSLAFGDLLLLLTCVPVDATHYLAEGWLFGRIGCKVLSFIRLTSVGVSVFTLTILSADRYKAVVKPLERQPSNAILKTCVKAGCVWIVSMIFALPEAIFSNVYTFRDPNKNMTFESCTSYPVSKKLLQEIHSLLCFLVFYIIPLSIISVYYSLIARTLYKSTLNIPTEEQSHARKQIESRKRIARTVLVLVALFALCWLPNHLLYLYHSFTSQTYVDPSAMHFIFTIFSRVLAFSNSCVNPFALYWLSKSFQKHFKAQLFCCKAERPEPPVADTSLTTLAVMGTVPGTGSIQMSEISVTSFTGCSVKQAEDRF

Read-outs that look alike come from different tables or passages of the source.

Assay [1] deals with T1, human BRS-3 (Homo sapiens, UniProt P32247). The settings on record: read-out: EC50 at BRS-3 in IP3 accumulation assay; HeLa cells stably transfected with human BRS-3; representative assay, FIG. 3C.
Assay [2] deals with T1, human BRS-3. The following applies: read-out: EC50 at BRS-3 in melanophore dispersion assay; melanophores transiently transfected with human BRS-3; representative assay, FIG. 3B.
The target of assay [3] is T1, human BRS-3. The following applies: read-out: EC50 at BRS-3 in FLIPR assay; HeLa cells stably transfected with human BRS-3; representative assay, FIG. 3A.
Assay [4] addresses endogenous human BRS-3 (Bombesin Receptor Subtype-3 G protein-coupled receptor) (human) (UniProt P32247). As to the kind of experiment: cell-based or functional assay.

As usually defined, the EC50 is the concentration that produces a half-maximal response.

Consider “[D-Tyr^6,βAla^11,Phe^13,Nle^14]Bombesin(6-14)”, for which the EC50 was approximately 0.13 nM at human BRS-3 [1], approximately 0.26 nM on human BRS-3 [2] and approximately 0.26 nM on human BRS-3 [3].
Take “[D-Tyr^6,βAla^11,Phe^13,Nle^14]Bombesin(6-14) (peptide)”: in assay [4], the EC50 in FLIPR assay (intracellular calcium), HeLa cells stably transfected with human BRS-3 came out at 0.26 nM; the EC50 in IP3 accumulation assay, HeLa cells stably transfected with human BRS-3 was 0.13 nM; the EC50 in melanophore dispersion assay, melanophores transiently transfected with human BRS-3 was 0.26 nM.
